By UniProt entry, the sequences of proteins in these tests, tags left out. Residues count along the entry.
UniProt P28335, 33-458 I156V/N158S/I160V limits assumed: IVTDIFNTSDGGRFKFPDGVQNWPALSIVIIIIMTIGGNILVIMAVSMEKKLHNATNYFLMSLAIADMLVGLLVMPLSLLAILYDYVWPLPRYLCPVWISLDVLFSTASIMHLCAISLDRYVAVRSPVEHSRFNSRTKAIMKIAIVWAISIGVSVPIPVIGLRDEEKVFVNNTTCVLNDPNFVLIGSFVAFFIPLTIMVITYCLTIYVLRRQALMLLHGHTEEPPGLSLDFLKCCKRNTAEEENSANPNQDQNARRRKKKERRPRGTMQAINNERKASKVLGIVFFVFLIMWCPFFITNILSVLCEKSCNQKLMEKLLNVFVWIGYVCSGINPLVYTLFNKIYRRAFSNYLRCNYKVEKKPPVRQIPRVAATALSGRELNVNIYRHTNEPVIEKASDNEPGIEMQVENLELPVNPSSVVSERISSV

According to patent US20250059184A1 (priority 2021, published 2025):

What was measured:
[1] = molecular target: human recombinant 5-HT2Cedited receptor (Homo sapiens, UniProt P28335, I156V/I160V/N158S); experiment: Serotonin 5-HT2C in vitro cellular IPOne agonism assay (HTRF); conditions: read-out: 5-HT2C IPOne Agonism Activity; CHO-K1 cells, agonist mode
[2] = molecular target: 5-HT2Cedited (accession number AAF35842.1) (Homo sapiens, UniProt P28335, I156V/I160V/N158S); experiment: Serotonin 5-HT2C in vitro radioligand binding competition assay ([3H]-DOI); conditions: read-out: 5-HT2C Radioligand Binding Activity; [3H]-DOI radiotracer, membrane extracts

With `NCCc1ncc2ccccn12` [Compound 1, 2-(imidazo[1,5-a]pyridin-3-yl)ethan-1-amine] the EC50 [1] was 1 to 10 µM and the IC50 [2] was 0.101 to 1 µM.
In the case of `CC(N)Cc1ncc2ccccn12` (stereo not drawn) [Compound 2, 1-(imidazo [1,5-a]pyridin-3-yl)propan-2-amine], the EC50 [1] is reported as 0.01 to 0.1 µM and the IC50 [2] is reported as 0.101 to 1 µM.
With `COc1ccn2c(CC(C)N)ncc2c1` (stereo not drawn) [Compound 3, 1-(7-methoxyimidazo[1,5-a]pyridin-3-yl)propan-2-amine] the EC50 [1] was 1 to 10 µM and the IC50 [2] was over 10 µM.
With `CC(N)Cc1ncc2cc(F)ccn12` (stereo not drawn) [Compound 4, 1-(7-fluoroimidazo[1,5-a]pyridin-3-yl)propan-2-amine] the EC50 [1] was 1 to 10 µM.
`Cc1nc(CC(C)N)n2ccc(F)cc12` (stereo not drawn) [Compound 5, 1-(7-fluoro-1-methylimidazo [1,5-a]pyridin-3-yl)propan-2-amine] gave an EC50 [1] of 0.101 to 1 µM and an IC50 [2] of 0.101 to 1 µM.
In the case of `CC(C)(N)Cc1ncc2ccccn12` [Compound 6, 1-(imidazo [1,5-a]pyridin-3-yl)-2-methylpropan-2-amine], the EC50 [1] is reported as 1 to 10 µM and the IC50 [2] is reported as 1 to 10 µM.
`Cc1cccc2cnc(CC(C)N)n12` (stereo not drawn) [Compound 7, 1-(5-methylimidazo[1,5-a]pyridin-3-yl)propan-2-amine] was tested, and the EC50 [1] was 0.101 to 1 µM and the IC50 [2] was 0.101 to 1 µM.
Work on `Cc1cccn2c(CC(C)N)ncc12` (stereo not drawn) [Compound 8, 1-(8-methylimidazo[1,5-a]pyridin-3-yl)propan-2-amine] yielded an EC50 [1] of 0.101 to 1 µM and an IC50 [2] of 0.101 to 1 µM.
`Cc1ccn2c(CC(C)N)ncc2c1` (stereo not drawn) [Compound 9, 1-(7-methylimidazo[1,5-a]pyridin-3-yl)propan-2-amine] showed an EC50 [1] of 1 to 10 µM and an IC50 [2] of 1 to 10 µM.
`Cc1ccc2cnc(CC(C)N)n2c1` (stereo not drawn) [Compound 10, 1-(6-methylimidazo[1,5-a]pyridin-3-yl)propan-2-amine] was tested, and the EC50 [1] was 0.101 to 1 µM and the IC50 [2] was 0.101 to 1 µM.
`Cc1nc(CC(C)N)n2ccccc12` (stereo not drawn) [Compound 11, 1-(1-methylimidazo[1,5-a]pyridin-3-yl)propan-2-amine] was tested, and the EC50 [1] was 0.101 to 1 µM and the IC50 [2] was 0.101 to 1 µM.
For `c1ccn2c(C3CCNC3)ncc2c1` (stereo not drawn) [Compound 12, 3-(Pyrrolidin-3-yl)imidazo[1,5-a]pyridine], the EC50 [1] was 1 to 10 µM and the IC50 [2] was 1 to 10 µM.
`c1ccn2c(CC3CCCN3)ncc2c1` (stereo not drawn) [Compound 13, 3-(Pyrrolidin-2-ylmethyl)imidazo[1,5-a]pyridine] gave an EC50 [1] of over 10 µM and an IC50 [2] of over 10 µM.
`CN(C)CCc1ncc2ccccn12` [Compound 14, 2-(Imidazo[1,5-a]pyridin-3-yl)-N,N-dimethylethan-1-amine] showed an EC50 [1] of 1 to 10 µM and an IC50 [2] of 1 to 10 µM.
`CC(Cc1ncc2ccccn12)N(C)C` (stereo not drawn) [Compound 15, 1-(imidazo [1,5-a]pyridin-3-yl)-N,N-dimethylpropan-2-amine] was tested, and the EC50 [1] was 1 to 10 µM and the IC50 [2] was 1 to 10 µM.
In the case of `COc1ccn2c(CC(C)N(C)C)ncc2c1` (stereo not drawn) [Compound 16, 1-(7-methoxyimidazo[1,5-a]pyridin-3-yl)-N,N-dimethylpropan-2-amine], the EC50 [1] is reported as over 10 µM and the IC50 [2] is reported as over 10 µM.
`CC(Cc1ncc2cc(F)ccn12)N(C)C` (stereo not drawn) [Compound 17, 1-(7-fluoroimidazo[1,5-a]pyridin-3-yl)-N,N-dimethylpropan-2-amine] showed an EC50 [1] of over 10 µM and an IC50 [2] of 1 to 10 µM.
With `Cc1nc(CC(C)N(C)C)n2ccc(F)cc12` (stereo not drawn) [Compound 18, 1-(7-fluoro-1-methylimidazo [1,5-a]pyridin-3-yl)-N,N-dimethylpropan-2-amine] the EC50 [1] was over 10 µM and the IC50 [2] was 1 to 10 µM.
Compound `CN(C)C(C)(C)Cc1ncc2ccccn12` [Compound 19, 1-(imidazo [1,5-a]pyridin-3-yl)-N,N,2-trimethylpropan-2-amine] has an EC50 [1] of over 10 µM and an IC50 [2] of 1 to 10 µM.
For `Cc1cccc2cnc(CC(C)N(C)C)n12` (stereo not drawn) [Compound 20, N,N-dimethyl-1-(5-methylimidazo [1,5-a]pyridin-3-yl)propan-2-amine], the EC50 [1] was over 10 µM and the IC50 [2] was 1 to 10 µM.
`Cc1cccn2c(CC(C)N(C)C)ncc12` (stereo not drawn) [Compound 21, N,N-dimethyl-1-(8-methylimidazo [1,5-a]pyridin-3-yl)propan-2-amine] gave an EC50 [1] of 1 to 10 µM and an IC50 [2] of 1 to 10 µM.
In the case of `Cc1ccn2c(CC(C)N(C)C)ncc2c1` (stereo not drawn) [Compound 22, N,N-dimethyl-1-(7-methylimidazo [1,5-a]pyridin-3-yl)propan-2-amine], the EC50 [1] is reported as over 10 µM and the IC50 [2] is reported as over 10 µM.
With `Cc1ccc2cnc(CC(C)N(C)C)n2c1` (stereo not drawn) [Compound 23, N,N-dimethyl-1-(6-methylimidazo [1,5-a]pyridin-3-yl)propan-2-amine] the EC50 [1] was over 10 µM and the IC50 [2] was 1 to 10 µM.
Work on `Cc1nc(CC(C)N(C)C)n2ccccc12` (stereo not drawn) [Compound 24, N,N-dimethyl-1-(1-methylimidazo [1,5-a]pyridin-3-yl)propan-2-amine] yielded an EC50 [1] of 1 to 10 µM and an IC50 [2] of 0.101 to 1 µM.
`CCN(CC)C(C)Cc1ncc2ccccn12` (stereo not drawn) [Compound 25, N,N-diethyl-1-(imidazo[1,5-a]pyridin-3-yl)propan-2-amine] showed an EC50 [1] of over 10 µM and an IC50 [2] of over 10 µM.
`CC(C)NC(C)Cc1ncc2ccccn12` (stereo not drawn) [Compound 26, 1-(imidazo [1,5-a]pyridin-3-yl)-N-isopropylpropan-2-amine] showed an EC50 [1] of over 10 µM and an IC50 [2] of 1 to 10 µM.
`CC(Cc1ncc2ccccn12)N1CCCC1` (stereo not drawn) [Compound 27, 3-(2-(pyrrolidin-1-yl)propyl)imidazo[1,5-a]pyridine] was tested, and the EC50 [1] was over 10 µM and the IC50 [2] was 1 to 10 µM.
`CC(Cc1ncc2ccccn12)N1CCOCC1` (stereo not drawn) [Compound 28, 4-(1-(Imidazo[1,5-a]pyridin-3-yl)propan-2-yl)morpholine] was tested, and the EC50 [1] was over 10 µM and the IC50 [2] was over 10 µM.
`C[C@@H](Cc1ncc2ccccn12)N(C)C` [Compound 29, (S)-1-(imidazo[1,5-a]pyridin-3-yl)-N,N-dimethylpropan-2-amine] was tested, and the EC50 [1] was over 10 µM and the IC50 [2] was over 10 µM.
In the case of `C[C@H](Cc1ncc2ccccn12)N(C)C` [Compound 30, (R)-1-(imidazo[1,5-a]pyridin-3-yl)-N,N-dimethylpropan-2-amine], the EC50 [1] is reported as over 10 µM and the IC50 [2] is reported as 1 to 10 µM.
`CN1CCCC1Cc1ncc2ccccn12` (stereo not drawn) [Compound 31, 3-((1-Methylpyrrolidin-2-yl)methyl)imidazo[1,5-a]pyridine] was tested, and the EC50 [1] was over 10 µM and the IC50 [2] was 1 to 10 µM.
`CN1CCC(c2ncc3ccccn23)C1` (stereo not drawn) [Compound 32, 3-(1-methylpyrrolidin-3-yl)imidazo[1,5-a]pyridine] was tested, and the EC50 [1] was 1 to 10 µM and the IC50 [2] was 1 to 10 µM.
`CC(N)Cc1cnc2ccccn12` (stereo not drawn) [Compound 33, 1-(imidazo[1,2-a]pyridin-3-yl)propan-2-amine] was tested, and the EC50 [1] was over 10 µM and the IC50 [2] was over 10 µM.
For `COc1ccn2c(CC(C)N)cnc2c1` (stereo not drawn) [Compound 34, 1-(7-methoxyimidazo[1,2-a]pyridin-3-yl)propan-2-amine], the EC50 [1] was over 10 µM and the IC50 [2] was over 10 µM.
With `CC(N)Cc1cnc2cc(F)ccn12` (stereo not drawn) [Compound 35, 1-(7-Fluoroimidazo[1,2-a]pyridin-3-yl)propan-2-amine] the EC50 [1] was over 10 µM and the IC50 [2] was over 10 µM.
`CC(Cc1cnc2ccccn12)N(C)C` (stereo not drawn) [Compound 36, 1-(imidazo[1,2-a]pyridin-3-yl)-N,N-dimethylpropan-2-amine] showed an EC50 [1] of over 10 µM and an IC50 [2] of over 10 µM.
`COc1ccn2c(CC(C)N(C)C)cnc2c1` (stereo not drawn) [Compound 37, 1-(7-Methoxyimidazo[1,2-a]pyridin-3-yl)-N,N-dimethylpropan-2-amine] gave an EC50 [1] of over 10 µM and an IC50 [2] of over 10 µM.
Compound `CC(Cc1cnc2cc(F)ccn12)N(C)C` (stereo not drawn) [Compound 38, 1-(7-Fluoroimidazo[1,2-a]pyridin-3-yl)-N,N-dimethylpropan-2-amine] has an EC50 [1] of over 10 µM and an IC50 [2] of over 10 µM.
With `NCCc1ncn2ccccc12` [Compound 39, 2-(Imidazo[1,5-a]pyridin-1-yl)ethan-1-amine] the EC50 [1] was 0.101 to 1 µM and the IC50 [2] was 0.101 to 1 µM.
With `CC(N)Cc1ncn2ccccc12` (stereo not drawn) [Compound 40, 1-(imidazo[1,5-a]pyridin-1-yl)propan-2-amine] the EC50 [1] was 1 to 10 µM and the IC50 [2] was 1 to 10 µM.
Work on `Cc1nc(CCN)c2ccccn12` [Compound 41, 2-(3-methylimidazo[1,5-a]pyridin-1-yl)ethan-1-amine] yielded an EC50 [1] of 1 to 10 µM and an IC50 [2] of 1 to 10 µM.
`Cc1nc(CC(C)N)c2ccc(F)cn12` (stereo not drawn) [Compound 42, 1-(6-fluoro-3-methylimidazo[1,5-a]pyridin-1-yl)propan-2-amine] was tested, and the EC50 [1] was 1 to 10 µM and the IC50 [2] was 1 to 10 µM.
For `CN(C)CCc1ncn2ccccc12` [Compound 43, 2-(imidazo [1,5-a]pyridin-1-yl)-N,N-dimethylethan-1-amine], the EC50 [1] was over 10 µM and the IC50 [2] was 1 to 10 µM.
Work on `CC(Cc1ncn2ccccc12)N(C)C` (stereo not drawn) [Compound 44, 1-(imidazo [1,5-a]pyridin-1-yl)-N,N-dimethylpropan-2-amine] yielded an EC50 [1] of over 10 µM and an IC50 [2] of 1 to 10 µM.
Compound `Cc1nc(CCN(C)C)c2ccccn12` [Compound 45, N,N-dimethyl-2-(3-methylimidazo [1,5-a]pyridin-1-yl)ethan-1-amine] has an EC50 [1] of 1 to 10 µM and an IC50 [2] of 1 to 10 µM.
With `Cc1nc(CC(C)N(C)C)c2ccc(F)cn12` (stereo not drawn) [Compound 46, 1-(6-fluoro-3-methylimidazo [1,5-a]pyridin-1-yl)-N,N-dimethylpropan-2-amine] the EC50 [1] was 1 to 10 µM and the IC50 [2] was 1 to 10 µM.
In the case of `NCCc1cnn2ccccc12` [Compound 47, 2-(Pyrazolo[1,5-a]pyridin-3-yl)ethan-1-amine], the EC50 [1] is reported as 1 to 10 µM and the IC50 [2] is reported as 1 to 10 µM.
With `CC(N)Cc1cnn2ccccc12` (stereo not drawn) [Compound 48, 1-(pyrazolo[1,5-a]pyridin-3-yl)propan-2-amine] the EC50 [1] was 0.101 to 1 µM and the IC50 [2] was 0.101 to 1 µM.
Compound `CN(C)CCc1cnn2ccccc12` [Compound 49, N,N-dimethyl-2-(pyrazolo[1,5-a]pyridin-3-yl)ethan-1-amine] has an EC50 [1] of 1 to 10 µM and an IC50 [2] of 1 to 10 µM.
`CC(Cc1cnn2ccccc12)N(C)C` (stereo not drawn) [Compound 50, N,N-dimethyl-1-(pyrazolo[1,5-a]pyridin-3-yl)propan-2-amine] was tested, and the EC50 [1] was 1 to 10 µM and the IC50 [2] was 1 to 10 µM.
